Tests used:
[1] = tested on: SSCs and BCSPs; assay: Flow cytometry of SSC and BCSP frequency in treated day-10 fracture calluses; type: in vivo, mouse; conditions: ‘24-mo’ mice; callus flow cytometry; Bmp2 5 μg; aCsf1 low 2 μg; compared to ‘2-mo’ PBS controls
Excerpt: (§1) Combinatorial targeting of the aged SSC differentiation defect and pro-resorptive signaling restores youthful bone regeneration. Our findings indicate that aged SSCs lose osteochondrogenic activity but also enhance bone resorption through the generation of an inflammatory, pro-osteoclastic niche. We hypothesized that bone regeneration could be restored in aged mice by targeting each of these pathways locally. To test this hypothesis, we created hydrogels containing the potent osteo-inductive agent Bmp2 (5 μg), a Csf1 antagonist (“aCsf1”; 2 “low” or 5 “high” μg), a combination of both factors, or PBS. We applied these hydrogels to transverse femoral fractures of ‘24-mo’ mice and assessed healing at post-fracture day-10 and -21 (FIG. 4a). ‘2-mo’ mice receiving PBS-containing hydrogels served as control. […] Within hematopoietic cell-enriched clusters (6 & 9) osteoclasts, macrophages, and neutrophils were dominant as expected for healing skeletal tissue (FIG. 4i-j & FIG. 13g). […]
Flow cytometry of skeletal progenitors: Skeletal stem cell lineage populations were isolated as previously described. […] The skeletal stem cell lineage gating strategy was determined using fluorescence-minus-one controls. […]

[2] = tested on: transverse femoral fractures of ‘24-mo’ mice; assay: Hydrogels with recombinant factors placed on transverse femoral fractures of aged mice; healing assessed at day-10 and day-21 (callus index, μCT, mechanical strength test); type: in vivo, mouse; conditions: hydrogel at fracture, Bmp2 5 μg, aCsf1 2 (low) or 5 (high) μg, compared to ‘2-mo’ PBS controls
Excerpt: as §1
X-ray radiography: Femora were harvested and cleaned of soft tissue. […] Radiograph images were analyzed using ImageJ 1.48v to determine the callus index. […]
Mechanical strength testing: Mechanical strength testing was conducted using a delaminator maintained by the R.H. Dauskardt laboratory (Stanford, CA). […] The maximum load (N) sustained prior to fracture was recorded. […]

B1: Bmp2: Recombinant mouse growth factor BMP2 (FisherScientific, Cat #: 355-BM), potent osteo-inductive agent, loaded in PEG hydrogel (protein, UniProt P21274 281-394, looked up)
Bone morphogenetic protein 2: QAKHKQRKRLKSSCKRHPLYVDFSDVGWNDWIVAPPGYHAFYCHGECPFPLADHLNSTNHAIVQTLVNSVNSKIPKACCVPTELSAISMLYLDENEKVVLKNYQDMVVEGCGCR
modifications: loaded in PEG hydrogel
SSC and BCSP frequency at day-10 [1]: increased SSC and BCSP frequencies to youthful levels | Callus index at post-fracture day-10 [2]: significantly smaller calluses
